Patent publication US11564923B2, “Compounds and pharmaceutical compositions thereof for the treatment of inflammatory disorders” (Galapagos NV, priority 2017, dated 2023)

Protein sequences, listed by entry. Tags and fused reporters are not part of them. Residues count along the entry.
UniProt O60674, 808-1132: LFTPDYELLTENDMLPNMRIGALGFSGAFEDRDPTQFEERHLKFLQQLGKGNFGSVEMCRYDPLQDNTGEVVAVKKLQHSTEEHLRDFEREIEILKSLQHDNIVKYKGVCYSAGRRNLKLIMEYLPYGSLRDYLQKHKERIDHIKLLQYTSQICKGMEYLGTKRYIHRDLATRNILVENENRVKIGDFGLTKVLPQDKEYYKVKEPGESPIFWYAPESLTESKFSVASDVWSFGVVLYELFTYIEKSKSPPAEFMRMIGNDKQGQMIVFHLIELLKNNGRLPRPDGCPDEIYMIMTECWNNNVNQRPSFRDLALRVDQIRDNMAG

Molecular target: T1, Recombinant human JAK2 (catalytic domain, amino acids 808-1132) (Homo sapiens, UniProt O60674)
T1 construct: catalytic domain, amino acids 808-1132
Assay: JAK2 inhibition assay; further: 0.7 µM ATP
Format: biochemical
Settings: read-out: JAK2 potency IC50
Protocol: After 60 min at room temperature, reactions are stopped by adding 20 μL/well of detection mixture (1× detection buffer (Perkin Elmer, catalog number CR97-100) with 0.5 nM Europium-anti-phosphotyrosine (PT66) (Perkin Elmer, catalog number AD0068/AD0069) and 10 mM EDTA). […] Kinase activity is calculated by subtracting the ratio obtained in the presence of a positive control inhibitor (1 μM staurosporine) from the ratio obtained in the presence of vehicle. The ability of a test compound to inhibit this activity (or percentage inhibition) is determined as:
[formula] wherein Fluorescent ratio test compound=ratio RFU665/RFU615*1000 determined for sample with test compound present Fluorescent ratio control=ratio RFU665/RFU615*1000 determined for sample with positive control inhibitor Fluorescent ratio vehicle=ratio RFU665/RFU615*1000 determined in the presence of vehicle
Dose dilution series are prepared for compound enabling the testing of dose-response effects in the JAK2 assay and the calculation of the IC50 for the compound. Each compound is routinely tested at concentration of 20 μM followed by a 1/5 serial dilution, 10 points in a final concentration of 1% DMSO. […] The data are expressed as the average IC50 from the assays.

Cc1cc(S(C)(=O)=O)cc(F)c1Oc1cc(Nc2cc(N)ncn2)c2ncn(C)c2n1 [Compound 2, N-[5-(2-Fluoro-4-methanesulfonyl-6-methyl-phenoxy)-3-methyl-3H-imidazo[4,5-b]pyridin-7-yl]-pyrimidine-4,6-diamine]
IC50: 19.4 nM
